The text below walks through data of patent US10787444B2, “Compounds for the modulation of myc activity” (Syros Pharmaceuticals, Inc., priority 2015, dated 2020).

Amino acid sequences for entries named in this document (tags omitted).
UniProt P01106, whole entry: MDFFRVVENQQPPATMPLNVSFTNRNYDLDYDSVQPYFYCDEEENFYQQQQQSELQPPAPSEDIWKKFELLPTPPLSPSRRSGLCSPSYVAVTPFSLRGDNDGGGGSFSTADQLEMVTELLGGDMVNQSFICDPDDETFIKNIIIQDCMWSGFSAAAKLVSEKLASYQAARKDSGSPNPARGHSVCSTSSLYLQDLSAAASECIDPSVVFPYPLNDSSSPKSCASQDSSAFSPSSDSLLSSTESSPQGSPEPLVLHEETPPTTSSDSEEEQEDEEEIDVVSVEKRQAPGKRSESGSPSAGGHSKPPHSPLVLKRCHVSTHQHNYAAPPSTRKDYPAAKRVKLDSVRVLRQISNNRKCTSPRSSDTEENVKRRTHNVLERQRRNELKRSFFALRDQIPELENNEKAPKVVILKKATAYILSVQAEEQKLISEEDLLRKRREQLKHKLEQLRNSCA

Bounds are passed on as bounds.

The target in experiment [1] is c-Myc/Max/Ebox DNA (Homo sapiens, UniProt P01106). The experiment is described as follows: c-Myc/Max/Ebox DNA AlphaScreen Assay. The note with it: read-out: Myc/Max/DNA Activity; Table 2, compounds of FIG. 1; calculated IC50 class. Format: binding.
Experiment [2] relates to human small lung cancer cell line H2171. The experiment is described as follows: Cell Viability Assay (ATPlite). Format: cell-based. The note with it: read-out: H2171 Activity, Table 2, compounds of FIG. 1, H2171 cells, three days, calculated IC50 class. As for the experimental part: Compounds of the invention were assayed for cell viability using the human small lung cancer cell line H2171 as described in the following protocol. Cells were counted and adjusted to 20,000 cells/mL. Using a Biotek EL406, 50 μL of cells in media were distributed into 384 well white plates from Thermo. Immediately after plating, compound in DMSO was distributed to plates. Compounds were added to plates using a 50 nL 384 well pin transfer manifold on a Janus workstation. Stocks were arrayed in 10 point dose response in DMSO stock in 384 well Greiner compound plates. After the addition of compounds, plates were incubated for three days in a 37° C. incubator. Cell viability was read out using ATPlite from Perkin Elmer. Lyophilized powder was resuspended in lysis buffer and diluted 1:2 with deionized water. 25 μL of this solution was added to each well using the Biotek liquid handler. Plates were incubated for 15 minutes at room temperature before signal was read on an Envision Plate Reader. The data from this assay are summarized in Tables 2 and 3 below (H2171 activity).

On to `O=C(CCNC12CC(C1)C2)Nc1sc2c(c1-c1nc3ccccc3s1)CCNC2`, for which the IC50 was 1000 to 10000 nM in experiment [1] and 300 to 1000 nM in experiment [2].

In the case of `CNc1ncc2cc(-c3ccc4nc(-c5c(NC(=O)CCNCCOC)sc6c5CCNC6)sc4c3)ccc2n1`, the IC50 was above 10000 nM in experiment [1] and below 300 nM in experiment [2].
